Data reported in patent US20060252045A1, “Methods and materials for identifying agents which modulate bone remodeling and agents identified thereby” (priority 2003, published 2006).

Key:
[1] = system: load- and Wnt-response genes in tibiae; conditions: mouse, in vivo
[2] = system: Dkk1 suppressed Wnt1/Wnt 3A TCF-signal in U2OS cells; test: Release of Dkk1 mediated inhibition of TCF-signal in U2OS cells; type: cell-based, human
Procedure: The final readout is activation of Dkk1 mediated suppressed TCF-signal. […] The experiment represented in FIG. 2 involved U2OS (ATCC) bone cells and is based on the endogenous expression of LRP5/6 receptors. […] 10 μL of the 15× stock was added per well along with appropriately diluted vehicle (i.e., DMSO) control.

β-catenin = test: Mouse calvarial model: β-catenin immunohistochemistry; conditions: in vivo

For `O=C1NC(=O)C(c2ccccc2[N+](=O)[O-])=C1Nc1ccc(O)c(Cl)c1` [iGSK-3, 3-(3-chloro-4-hydroxyphenylamino)-4-(2-nitrophenyl)-1H-pyrrole-2,5-dione], the “expression of Cox2, eNos, Wnt10B, SFRP1, Cx43, CCND1 and Fzd2 in the presence of load compared to vehicle treatment” value [1] was “synergistically induced”, the “transcriptional changes in tibiae, low dose versus high dose” value [1] was “dose-dependent trend” and the “release of Dkk1 suppression of TCF-signal, Wnt1” value [2] was “released almost completely”. For the same molecule, the “β-catenin expression in osteoblastic cells lining the periosteum” value (β-catenin) was “strong β-catenin expression”.
